Data taken from PMC6154706, “Inhibitory Effect of Triterpenoids from Panax ginseng on Coagulation Factor X” (Molecules : A Journal of Synthetic Chemistry and Natural …, 2017).

Assays:
[1] = biological target: T1, coagulation factor Xa (FXa) (Bos taurus, UniProt P00743); experiment: FXa activity assay in vitro (chromogenic substrate method); type: biochemical; settings: FXa 0.5 nM, pH 7.4, 37 °C, OD 405 nm; read-out: IC50 against coagulation factor Xa (FXa)
T1 construct: purchased New England Biolabs (Hitchin, UK)
Method: 10 µL of FXa (final concentration of 0.5 nM), 40 µL of Tris buffer (adjusted to pH 7.4 with HCl containing 0.3 M NaCl and 50 mM Tris) and 10 µL of test compounds were added to the well, respectively. The negative control was performed using the same mixed solutions except that the test compound was replaced with DMSO. […] After 15 min of incubation at 37 °C, FXa substrate (40 μL, final concentration of […]) was added and then was incubated 37 °C for 25 min [3]. The optical density (OD) values at 405 nm were evaluated by an automated microplate reader. […] Inhibition rate was calculated by the following formula: Anti-FXa activity = (V0 − Vi)/V0 [21]. The IC50 value was subsequently calculated by SPSS 19.0.

[2] = design: method as in PMID 18957175; settings: acidic and high-temperature conditions, especially in the stomach; cited from earlier work
human FIIa (thrombin) = biological target: T2, human FIIa (thrombin) (Homo sapiens, UniProt P00734); experiment: Thrombin inhibition in vitro (chromogenic substrate CS-01(38)); type: biochemical; settings: pH 7.4, 37 °C, 405 nm
T2 construct: purchased Hyphen BioMed (Paris, France)
Method: The inhibition of thrombin was evaluated by human FIIa and chromogenic substrate CS-01(38) in 96-well microtiter plates at room temperature. Compounds 5, 13 and 18 as well as the positive reagent Ximelagatran were dissolved in DMSO to a concentration of 1mM and then serially diluted to a range of 10 μM to 100 μM, respectively. 8 μL of FIIa (3 NIH U/mL), 80 μL of Tris buffer (adjusted to pH 7.4 with HCl) containing 0.3 M NaCl and 50 mM Tris and 8 μL of test compounds were added to the well, respectively. The negative control was performed using the same mixed solutions except that tested compounds were replaced with DMSO. The positive control was performed using the same mixed solutions except that the test compounds were replaced with ximelagatran. After incubation at 37 °C for 15 min, 12 μL of FIIa substrate solution (4 mM) was added and then incubated at 37 °C for 25 min [3]. The anti-FIIa activity was measured at 405 nm using a microplate reader.

ginsenoside Rg3
IC50 [1]: 127 nM | Chemical structure stability [2]: unstable chemical structure | IC50 (human FIIa (thrombin)): 92.6 µM

20(R)-Rg3
IC50 [1]: 815 nM
